For data set [1], the system named is boer goats (Capra hircus). Briefly: etorphine immobilization of goats with coadministered serotonergic ligands: recumbency and cardiorespiratory variables. The note with it: for PaCO2 after diprenorphine administration vs preinjection / PaO2 after diprenorphine administration vs preinjection / hemoglobin oxygen saturation after diprenorphine administration vs preinjection: diprenorphine line = etorphine+water trial; for heart rate compared with etorphine+water: after the second 10-min interval; for clinical hypoxia (PaO2<60 mmHg and percent arterial haemoglobin saturation <85%): etorphine alone up until 10 min after injection, ligands coadministered with etorphine; for PaO2 compared with etorphine+water: first 10 min of immobilization, P<0.05; for effect on the etorphine-induced biphasic changes of mean arterial pressure / effect on the etorphine-induced decrease in PaO2 / effect on the etorphine-induced decrease in hemoglobin oxygen saturation / effect on the etorphine-induced increase in A-a gradient / effect on the etorphine-induced rise in PaCO2 / effect on the etorphine-induced decline in heart rate / effect on the etorphine-induced decrease in respiratory rate: ligand 0.5 mg/kg i.v. coadministered with etorphine; for effect on the etorphine-induced decline in heart rate: after first 8 min; for effect on the etorphine-induced decrease in respiratory rate: pre- vs postinjection; for time to recumbency: ligand 0.5 mg/kg i.v. injected with etorphine 0.06 mg/kg i.m., mean (SD), P<0.05 vs etorphine+water; for degree of immobilization compared with etorphine+water: ligand 0.5 mg/kg i.v. with etorphine, clinical assessment over 30 min.

Data set [2] deals with boer goats (Capra hircus). Briefly: serotonergic ligands injected alone, without etorphine, in goats. The settings on record: 0.5 mg/kg i.v. without etorphine.
For another data set, the system named is goats. Put plainly: pilot dose-response study in goats under etorphine immobilization. The note with it: 0.5 mg/kg i.v. under etorphine immobilization.
[3] abbreviates: diprenorphine 0.096 mg/kg i.v. at 30 min.

`CO[C@]12CC[C@@]3(C[C@@H]1C(C)(C)O)[C@H]1Cc4ccc(O)c5c4[C@@]3(CCN1CC1CC1)[C@H]2O5`: in data set [1] (setting [3]), the “PaCO2 after diprenorphine administration vs preinjection” value (from here on “PaCO2 … vs preinjection”) was “returning to preinjection values”, the “PaO2 after diprenorphine administration vs preinjection” value (from here on “PaO2 … vs preinjection”) is given as “returned to preinjection values” and the “hemoglobin oxygen saturation after diprenorphine administration vs preinjection” value (“hemoglobin oxygen saturation … vs preinjection” for short) is on record as “returned to near preinjection values”. In data set [1] (etorphine+water trial, diprenorphine 0.096 mg/kg i.v. at 30 min), the “respiratory rate after diprenorphine reversal vs preinjection” value is “returned to preinjection rates”.

`CCCN(CCC)C1CCc2cccc(O)c2C1` (racemic) [8-OH-DPAT, 8-hydroxy-2-(di-n-propylamino)tetralin]: in data set [2], the “immobilization or sedation by the ligand alone” value was “Neither zacopride nor 8-OH DPAT immobilized or sedated the goats”. In the data set on goats, the “effect of midrange dose on respiratory rate and side effects” value is listed as “increased the respiratory rate in the goats under etorphine immobilization without causing any harmful side effects”. In addition, the “effects consistent with depression of respiratory neurons” value in data set [1] (500 μg/kg with etorphine in goats) is “did not observe any effects consistent with depression of respiratory neurons”. Also, in data set [1], the “heart rate compared with etorphine+water” value is reported as “decreased”; the “clinical hypoxia (PaO2<60 mmHg and percent arterial haemoglobin saturation <85%)” value is reported as “remained above levels defining clinical hypoxia”; the “PaO2 compared with etorphine+water” value was “higher levels of PaO2”; the “effect on the etorphine-induced biphasic changes of mean arterial pressure” value was “enhanced the biphasic pressure changes”. Also, in data set [1], the “effect on the etorphine-induced decrease in PaO2” value is “attenuated, but did not fully abolish”; the “effect on the etorphine-induced decrease in hemoglobin oxygen saturation” value was “attenuated the etorphine-induced decrease in saturation”; the “effect on the etorphine-induced increase in A-a gradient” value is “abolished the increase in the gradient”; the “effect on the etorphine-induced rise in PaCO2” value is “had no beneficial effect”. In data set [1], the “effect on the etorphine-induced decline in heart rate” value was “accentuated”, the “effect on the etorphine-induced decrease in respiratory rate” value is recorded as “abolished the decrease in the respiratory rate”, the time to recumbency is 51 (SD 21) s and the “degree of immobilization compared with etorphine+water” value was “not qualitatively different from that following etorphine administration with water”. Besides, in data set [1] (setting [3]), the “A-a gradient after diprenorphine administration vs preinjection” value is “dropped significantly below preinjection values”; the “heart rate after diprenorphine administration vs preinjection” value is given as “remained significantly (Student's paired t-test, P<0.0001) lower than the preinjection rate”; the “mean arterial pressure after diprenorphine administration vs preinjection” value was “significantly higher than preinjection values”; the “PaCO2 … vs preinjection” value was “remained moderately elevated”. Also, in data set [1] (setting [3]), the “PaO2 … vs preinjection” value was “Neither zacopride [F(10,70)=5.67, P=0.64] nor 8-OH-DPAT [F(10,70)=5.67, P=0.95] affected the return of PaO2 values to preinjection values” and the “hemoglobin oxygen saturation … vs preinjection” value is “remained moderately depressed”. Besides, the “mean arterial pressure compared with etorphine+water and etorphine+zacopride” value in data set [1] (first 10-min interval) is “significantly (F=0.94, P=0.0015) higher”. Also, the “hemoglobin oxygen saturation compared with etorphine+water” value in data set [1] (only over the first 10-min interval after administration) was “significantly (F=10.76, P=0.0015) higher”.

As to `COc1cc(N)c(Cl)cc1C(=O)NC1CN2CCC1CC2.Cl` (racemic) [zacopride, 4-amino-N-1-azabicyclo[2.2.2] oct-3-yl-5-chloro-2-methoxybenzamide hydrochloride], the “immobilization or sedation by the ligand alone” value in data set [2] is listed as “Neither zacopride nor 8-OH DPAT immobilized or sedated the goats”. For the same molecule, the “effect of midrange dose on respiratory rate and side effects” value in the data set with goats is reported as “increased the respiratory rate in the goats under etorphine immobilization without causing any harmful side effects”. Also, in data set [1], the “heart rate compared with etorphine+water” value is on record as “increased”; the “clinical hypoxia (PaO2<60 mmHg and percent arterial haemoglobin saturation <85%)” value is on record as “remained above levels defining clinical hypoxia”; the “PaO2 compared with etorphine+water” value is “higher levels of PaO2”; the “effect on the etorphine-induced biphasic changes of mean arterial pressure” value was “attenuated the biphasic effects of etorphine administration”. For the same molecule, in data set [1], the “effect on the etorphine-induced decrease in PaO2” value is given as “attenuated, but did not fully abolish”; the “effect on the etorphine-induced decrease in hemoglobin oxygen saturation” value is recorded as “attenuated the etorphine-induced decrease in saturation”; the “effect on the etorphine-induced increase in A-a gradient” value was “attenuated”; the “effect on the etorphine-induced rise in PaCO2” value is “significantly attenuated the rise in PaCO2”. Further, in data set [1], the “effect on the etorphine-induced decline in heart rate” value is given as “attenuated”; the “effect on the etorphine-induced decrease in respiratory rate” value is “abolished the decrease in the respiratory rate”; the time to recumbency is reported as 63 (SD 23) s; the “degree of immobilization compared with etorphine+water” value was “increased muscle tone, moved more, and vocalized more”. In data set [1] (setting [3]), the “heart rate after diprenorphine administration vs preinjection” value is reported as “returned to the preinjection rates”; the “mean arterial pressure after diprenorphine administration vs preinjection” value is given as “lower than preinjection pressure”; the “PaCO2 … vs preinjection” value is on record as “did not alter the return of PaCO2 values to preinjection values”; the “PaO2 … vs preinjection” value is “Neither zacopride [F(10,70)=5.67, P=0.64] nor 8-OH-DPAT [F(10,70)=5.67, P=0.95] affected the return of PaO2 values to preinjection values”. The “hemoglobin oxygen saturation … vs preinjection” value in data set [1] (setting [3]) is “did not alter the return of saturation to preinjection levels”. Besides, the “PaCO2 compared with etorphine+water and etorphine+8-OH-DPAT” value in data set [1] (first 20 min of the immobilization period) was “significantly [F(10,70)=3.87, P<0.05] lower”. Further, the “hemoglobin oxygen saturation compared with etorphine+water” value in data set [1] (over the entire immobilization period) is on record as “significantly (F=7.18, P<0.05) higher”. Further, the “mean arterial pressure throughout the immobilization” value in data set [1] (zacopride coadministered with etorphine, P=0.025) is recorded as “reduced mean arterial pressure throughout the immobilization”.

For the origin of these results see US9125900B2 (priority 2005, dated 2015).
